The nature of this data set: Phase solubility analysis of RIF with cyclodextrins (binding constant, complexation efficiency). In kind it is physicochemical. As to the method: Phase solubility analysis was carried out similarly to the saturation solubility studies by using a range of concentrations of CDs in buffered solutions at different pH vales. […] Solubility of each drug was determined and plotted in a graph with the nominal concentration of cyclodextrin on the x-axis and the nominal concentration of RIF on the y-axis.
In order to determine the binding strength of CD and RIF, the binding constant (Ks) was calculated based on the phase diagram of solubility studies. […] (1) Ks=[RIF−CD]/[RIF]free·[CD]free CD+RIF↔KsCD−RIF where [RIF − CD], [RIF]free, and [CD]free are concentration of the RIF-CD complexes, free RIF, and free CD, respectively.
[RIF]free can be considered as RIF initial solubility (S0), therefore Equation (2) becomes:(2) Ks=[RIF−CD]/S0·[CD]free
The phase solubility diagram was constructed by plotting the RIF molar concentration on the y-axis and the CD molar concentration on the x-axis. […] (3) Ks=slope/S0·(1−slope)
The complexation efficiency (CE) was determined by using the slope of the phase solubility diagram according to Equation (4). (4) CE=[CD−RIF]/[CD]free=S0·Ks=slope/1−slope
Based on CE determination, the CD molar ratio was calculated using Equation (5). (5) Drug :CD molar ratio=1 : (CE+1)/CE

Take hydroxypropyl-γCD [HP-γCD]: the “CE (complexation efficiency)” value is listed as 0.32 (pH 4.0), 0.77 (pH 7.0) and 0.99 (pH 9.0). In addition, the “Ks (binding constant)” value (pH 4.0, RIF-CD 1:1 complex) stood at 738 M⁻¹; the “Ks (binding constant)” value (pH 7.0, RIF-CD 1:1 complex) was 674 M⁻¹; the “Ks (binding constant)” value (pH 9.0, RIF-CD 1:1 complex) is 722 M⁻¹.
